Experimental data as given in patent US20160151452A1.

Legend:
EphB2-Fc = experiment: SPR titration (0.05-100 nM) on immobilised EphB2-Fc, Langmuir 1:1 fit
EphA6-Fc = experiment: SPR titration on immobilised EphA6-Fc, Langmuir 1:1 fit

Row | Substance | Kd (EphB2-Fc) | Kd (EphA6-Fc)
1 | GST-Azu 36-89 (from UniProt P08515 1-218) | 0.061 µM | –
2 | GST-Azu 36-128 (from UniProt P08515 1-218) | 0.023 µM | –
3 | ephrinA1-Fc (Fc fusion) | – | 0.0078 µM
